This passage reports clearance and IC50 results from publication PMC10861881 (Proceedings of the National Academy of Sciences of the …, 2024).

Protein sequences, listed by entry. Tags and fused reporters are not part of them. Lines headed by an entry give the natural chain unless they say otherwise; changes in a name come on top.
UniProt Q12809: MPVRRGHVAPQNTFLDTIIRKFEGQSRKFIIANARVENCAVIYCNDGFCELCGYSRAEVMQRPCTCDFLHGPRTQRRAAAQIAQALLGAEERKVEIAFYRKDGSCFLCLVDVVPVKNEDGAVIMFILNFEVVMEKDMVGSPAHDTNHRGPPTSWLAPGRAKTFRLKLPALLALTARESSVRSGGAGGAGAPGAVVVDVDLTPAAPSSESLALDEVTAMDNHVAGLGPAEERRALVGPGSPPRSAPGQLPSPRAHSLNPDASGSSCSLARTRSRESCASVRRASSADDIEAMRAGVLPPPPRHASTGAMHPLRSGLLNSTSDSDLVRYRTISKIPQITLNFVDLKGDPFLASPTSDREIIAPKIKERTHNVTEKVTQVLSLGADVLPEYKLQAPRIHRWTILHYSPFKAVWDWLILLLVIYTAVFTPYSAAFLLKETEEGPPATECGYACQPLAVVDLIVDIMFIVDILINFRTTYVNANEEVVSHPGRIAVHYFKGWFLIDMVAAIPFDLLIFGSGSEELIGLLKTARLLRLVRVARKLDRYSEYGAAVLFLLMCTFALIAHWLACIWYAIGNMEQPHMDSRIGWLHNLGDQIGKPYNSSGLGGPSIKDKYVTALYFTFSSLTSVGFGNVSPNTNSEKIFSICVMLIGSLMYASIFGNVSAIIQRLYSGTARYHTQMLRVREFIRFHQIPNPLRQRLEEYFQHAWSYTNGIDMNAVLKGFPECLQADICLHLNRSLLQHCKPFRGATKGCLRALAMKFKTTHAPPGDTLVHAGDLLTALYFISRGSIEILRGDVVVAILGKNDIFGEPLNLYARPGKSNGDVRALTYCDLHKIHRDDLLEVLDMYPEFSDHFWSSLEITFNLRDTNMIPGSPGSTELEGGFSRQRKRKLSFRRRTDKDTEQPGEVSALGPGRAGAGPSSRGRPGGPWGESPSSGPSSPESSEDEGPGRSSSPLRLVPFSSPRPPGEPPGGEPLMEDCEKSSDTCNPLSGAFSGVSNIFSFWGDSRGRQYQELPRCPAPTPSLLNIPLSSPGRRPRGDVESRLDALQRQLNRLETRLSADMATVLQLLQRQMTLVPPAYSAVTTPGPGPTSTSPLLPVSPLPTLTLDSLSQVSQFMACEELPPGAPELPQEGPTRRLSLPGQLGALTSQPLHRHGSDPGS

One data set is described as follows: PK study IV/PO, rat. To be noted: Sprague-Dawley, in vivo.
The next data set has as its target hERG (Homo sapiens, UniProt Q12809).

The structures appear in SMILES notation.

Compound `C=C(C)C(=O)Nc1ccc(-c2c(-c3ccc(Oc4nccc(C)n4)c(F)c3)c3c(N)ncnc3n2C)cc1` [Lirafugratinib] displayed a clearance in the data set “PK study IV/PO, rat” of 60 mL/min/kg. The 50% inhibitory concentration (IC50) (in general, the concentration needed to halve the response being measured) against hERG is 16 µM.
